Assay results reported in patent US20240174727A1, “LONG-ACTING NATRIURETIC PEPTIDES AND USES THEREOF” (Eli Lilly and Company, priority 2022, published 2024).

What follows are compounds tested against T1, human NPRA (Homo sapiens, UniProt P16066) (assay: Human NPRA cGMP activity assay (HTRF) in HEK293 cells overexpressing NPRA). Settings: cGMP Assay (EC50, pM) w/Casein hNPRA, assay buffer with 0.1% casein.
T1 construct: Full-Length cDNA Cloning and Generation of Cell Lines Overexpressing Natriuretic Peptide Receptors (NPRs); expressed in transfected cells; host or cells: Jump-in T-Rex HEK293 cells, pJTI R4 CMV-TO MCS pA vector, tetracycline induction
T1 sequence (P16066 33-1061): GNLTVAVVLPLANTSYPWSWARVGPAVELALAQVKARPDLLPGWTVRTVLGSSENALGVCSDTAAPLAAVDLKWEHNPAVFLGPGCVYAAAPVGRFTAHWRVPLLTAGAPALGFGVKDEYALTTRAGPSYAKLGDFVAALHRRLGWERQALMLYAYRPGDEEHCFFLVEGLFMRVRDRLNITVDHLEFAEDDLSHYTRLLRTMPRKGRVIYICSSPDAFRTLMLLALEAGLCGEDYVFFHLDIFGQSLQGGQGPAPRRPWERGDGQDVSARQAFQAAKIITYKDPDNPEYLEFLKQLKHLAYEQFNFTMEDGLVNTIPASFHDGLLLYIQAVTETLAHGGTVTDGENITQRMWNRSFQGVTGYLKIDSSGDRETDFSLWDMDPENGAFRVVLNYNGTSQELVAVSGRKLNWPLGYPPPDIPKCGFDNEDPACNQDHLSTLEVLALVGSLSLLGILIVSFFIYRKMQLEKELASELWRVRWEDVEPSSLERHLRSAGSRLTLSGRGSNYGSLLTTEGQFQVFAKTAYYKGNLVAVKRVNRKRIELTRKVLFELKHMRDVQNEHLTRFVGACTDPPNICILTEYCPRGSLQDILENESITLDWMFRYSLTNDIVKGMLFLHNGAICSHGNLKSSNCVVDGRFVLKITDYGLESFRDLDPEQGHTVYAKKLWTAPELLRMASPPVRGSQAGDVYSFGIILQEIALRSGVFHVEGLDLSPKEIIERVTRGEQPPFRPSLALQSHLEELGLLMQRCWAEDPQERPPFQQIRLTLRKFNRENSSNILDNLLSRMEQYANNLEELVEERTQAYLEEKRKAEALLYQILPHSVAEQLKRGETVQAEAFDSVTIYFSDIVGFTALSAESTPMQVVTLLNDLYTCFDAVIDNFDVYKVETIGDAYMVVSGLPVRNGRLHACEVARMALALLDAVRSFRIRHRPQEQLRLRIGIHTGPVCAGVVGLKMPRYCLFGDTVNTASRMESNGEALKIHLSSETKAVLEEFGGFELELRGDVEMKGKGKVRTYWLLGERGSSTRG
Format: cell-based
Experimental: All sequences were verified by full-length sequencing performed by ACGT DNA Sequencing Services (Wheeling, IL). The target cDNA was cloned into pJTI R4 CMV-TO MCS pA vector and then co-transfected with pJT1R4 Int vector into Jump-in™ T-Rex™ HEK293 cells for mammalian inducible expression using Jump-in™ T-Rex™ HEK293 kit and Lipofectamine LTX and Plus Reagent following manufacturer's protocols, as briefly described below.
Jump-in™ T-Rex™ HEK293 cells were plated in a BioCOAT® poly-D-lysine coated 6-well plate (Becton Dickinson, cat no. 354413) at 1 million cells/well in 2 mL culture medium and incubated for 18 h at 37° C. and 5% CO2 to 50-70% confluence. A cDNA mix was made in a 50 mL tube by adding 1.5 μg target cDNA, 1.5 μg pJT1R4 Int vector, 3 μL Plus Reagent, and 300 μL Opti-MEM I sequentially into the tube. A reagent mix was made in a separate 50 mL tube by adding 7.5 μL Lipofectamine LTX into 300 μL Opti-MEM I. The mixtures were incubated for 5 min at room temperature. The cDNA mix was then transferred into the reagent mix, mixed well, and incubated for additional 30 min at room temperature. A 500 μL of cDNA/Lipofectamine complex was then transferred to the wells of the cell plate in which the culture medium was changed to 2 mL of transfection medium containing DMEM with 4.5 g/L D-glucose supplemented with 10% FBS-HI and 20 mM HEPES. Transfected cells were cultured for 48 h in an incubator at 37° C. and 5% CO2. A subclone or pool from each overexpressing cell line was maintained in culture medium with the addition of 2 mg/mL G418 sulfate for the clone selection based on its built-in resistance to G418 sulfate for at least 3 weeks with medium changed every 2-3 days.
NPRs were overexpressed in T-Rex™ HEK293 cells following the induction with 300 ng/mL tetracycline in culture medium for 48 h. Induced cell lines in an exponential growth phase were treated with 0.05% trypsin-EDTA for a few seconds at room temperature, harvested in cell medium containing FBS to neutralize the trypsin, counted, and cryopreserved at the density of 2 million cells/mL in cell preservation solution containing FBS-HI with 5% DMSO. Cryopreserved cells were stored at −80° C. for a few days prior to transferring to a liquid nitrogen tank. Induced cell lines were then used for suspension assays to measure the activity of polypeptides to stimulate cGMP production in cGMP assays or for the preparation of cell membranes to measure the binding activity of polypeptides in competitive radioligand binding assays, as described below.
Test polypeptides were added starting at 10 μM concentration and at 10-fold decreasing concentrations to obtain 8-point concentration-response curves (i.e., 10 μM to 1 pM). The quantity of cGMP generated was detected using HTRF® technology and normalized to maximum amount produced by 100 nM amidated rat ANP and the minimum amount produced by assay buffer. Detailed steps are outlined below.
Stock solutions of test polypeptides (2 mM) dissolved in DMSO were first diluted 100-fold in assay buffer containing HBSS with Ca^2+ and Mg^2+, 5 mM HEPES, 0.5 mM IBMX, and 0.1% BSA or 0.1% casein (pH 7.4). The polypeptides were further serially diluted in 1:10 dilution steps in assay buffer containing 0.1% BSA or 0.1% casein to generate 8-point 2× working stock solutions ranging from 20 μM to […].
A 10 μL cell suspension containing 4000 cells was plated in Costar® half-area white opaque 96-well plates (Corning, cat no. 3693). Then 10 μL of assay buffer (basal activity), 200 nM of amidated rat ANP (maximum activity) or 2× working stock solutions of test polypeptides were transferred into the plate. Final concentration of DMSO in each well was 0.5%. The plate was shaken for 15 sec and then incubated for 40 min at room temperature.
The cGMP generated was measured using cGMP kit following the manufacturer's directions, as described below.
Work on `CC[C@H](C)[C@@H]1NC(=O)[C@H](CCCNC(=N)N)NC(=O)[C@H](CC(=O)O)NC(=O)[C@H]([C@@H](C)CC)NC(=O)[C@H](CCCNC(=N)N)NC(=O)CNC(=O)CNC(=O)[C@H](Cc2ccccc2)NC(=O)[C@@H](NC(=O)[C@H](CO)NC(=O)[C@H](CO)NC(=O)[C@H](CCCNC(=N)N)NC(=O)[C@H](CCCNC(=N)N)NC(=O)[C@H](Cc2ccncc2)NC(=O)[C@H](CO)NC(=O)CNC(=O)[C@H](CCCCN)NC(=O)[C@H](CCC(=O)O)NC(=O)[C@H](CCCCN)NC(=O)[C@H](CCC(=O)O)NC(=O)[C@H](CCCCN)NC(=O)[C@H](CCC(=O)O)NC(=O)CC[C@H](NC(=O)CCCCCCCCCCCCCCCCCCC(=O)O)C(=O)O)CSSC[C@@H](C(=O)N2CCC[C@H]2C(=O)N[C@@H](CO)C(=O)N[C@@H](Cc2ccccc2)C(=O)N[C@@H](CCCNC(=N)N)C(=O)N[C@@H](Cc2ccncc2)C(=O)NCC(=O)NCC(=O)N2CCC[C@H]2C(=O)N[C@@H](CO)C(=O)N[C@@H](CO)C(=O)NCC(=O)N[C@@H](C)C(=O)N2CCC[C@H]2C(=O)N2CCC[C@H]2C(=O)N2CCC[C@H]2C(=O)N[C@@H](CO)C(N)=O)NC(=O)CNC(=O)[C@H](CC(C)C)NC(=O)CNC(=O)[C@H](CO)NC(=O)[C@H](CCC(N)=O)NC(=O)[C@H](C)NC(=O)CNC1=O` [Example 23] yielded an EC50 of 3490 pM.
In the case of `CC[C@H](C)[C@@H]1NC(=O)[C@H](CCCNC(=N)N)NC(=O)[C@H](CC(=O)O)NC(=O)[C@H]([C@@H](C)CC)NC(=O)[C@H](CCCNC(=N)N)NC(=O)CNC(=O)CNC(=O)[C@H](Cc2ccccc2)NC(=O)[C@@H](NC(=O)[C@H](CO)NC(=O)[C@H](CO)NC(=O)[C@H](CCCNC(=N)N)NC(=O)[C@H](CCCCN)NC(=O)[C@H](Cc2ccncc2)NC(=O)[C@H](CO)NC(=O)CNC(=O)[C@H](CCCCN)NC(=O)[C@H](CCC(=O)O)NC(=O)[C@H](CCCCN)NC(=O)[C@H](CCC(=O)O)NC(=O)[C@H](CCCCN)NC(=O)[C@H](CCC(=O)O)NC(=O)CC[C@H](NC(=O)CCCCCCCCCCCCCCCCCCC(=O)O)C(=O)O)CSSC[C@@H](C(=O)N2CCC[C@H]2C(=O)N[C@@H](CO)C(=O)N[C@@H](Cc2ccccc2)C(=O)N[C@@H](CCCNC(=N)N)C(=O)N[C@@H](Cc2c[nH]cn2)C(=O)NCC(=O)NCC(=O)N2CCC[C@H]2C(=O)N[C@@H](CO)C(=O)N[C@@H](CO)C(=O)NCC(=O)N[C@@H](C)C(=O)N2CCC[C@H]2C(=O)N2CCC[C@H]2C(=O)N2CCC[C@H]2C(=O)N[C@@H](CO)C(N)=O)NC(=O)CNC(=O)[C@H](CC(C)C)NC(=O)CNC(=O)[C@H](CO)NC(=O)[C@H](CCC(N)=O)NC(=O)[C@H](Cc2c[nH]cn2)NC(=O)CNC1=O` [Example 35], the EC50 is reported as 118 pM.
Compound `CC[C@H](C)[C@@H]1NC(=O)[C@H](CCCNC(=N)N)NC(=O)[C@H](CC(=O)O)NC(=O)[C@H]([C@@H](C)CC)NC(=O)[C@H](CCCCN)NC(=O)CNC(=O)CNC(=O)[C@H](Cc2ccccc2)NC(=O)[C@@H](NC(=O)[C@H](CO)NC(=O)[C@H](CO)NC(=O)[C@H](CCCNC(=N)N)NC(=O)[C@H](CCCNC(=N)N)NC(=O)[C@H](Cc2ccncc2)NC(=O)[C@H](CO)NC(=O)CNC(=O)[C@H](CCCCN)NC(=O)[C@H](CCC(=O)O)NC(=O)[C@H](CCCCN)NC(=O)[C@H](CCC(=O)O)NC(=O)[C@H](CCCCN)NC(=O)[C@H](CCC(=O)O)NC(=O)CC[C@H](NC(=O)CCCCCCCCCCCCCCCCCCC(=O)O)C(=O)O)CSSC[C@@H](C(=O)N2CCC[C@H]2C(=O)N[C@@H](CO)C(=O)N[C@@H](Cc2ccccc2)C(=O)N[C@@H](CCCNC(=N)N)C(=O)N[C@@H](Cc2c[nH]cn2)C(=O)NCC(=O)NCC(=O)N2CCC[C@H]2C(=O)N[C@@H](CO)C(=O)N[C@@H](CO)C(=O)NCC(=O)N[C@@H](C)C(=O)N2CCC[C@H]2C(=O)N2CCC[C@H]2C(=O)N2CCC[C@H]2C(=O)N[C@@H](CO)C(N)=O)NC(=O)CNC(=O)[C@H](CC(C)C)NC(=O)CNC(=O)[C@H](CO)NC(=O)[C@H](CCC(N)=O)NC(=O)[C@H](Cc2c[nH]cn2)NC(=O)CNC1=O` [Example 36] has an EC50 of 118 pM.
